Test results from publication PMC3894963, “Expression and Functional Characterization of Membrane-Integrated Mammalian Corticotropin Releasing Factor Receptors 1 and 2 in Escherichia coli” (PLoS ONE, 2014).

Target: T1, hCRFR1α (Homo sapiens, UniProt P34998)
T1 construct: The cDNAs encoding full-length mature forms of hCRFR1α and mCRFR2β were introduced into pET-26b plasmid; made in house; host or cells: E. coli (membrane fraction)
T1 sequence (P34998 24-415): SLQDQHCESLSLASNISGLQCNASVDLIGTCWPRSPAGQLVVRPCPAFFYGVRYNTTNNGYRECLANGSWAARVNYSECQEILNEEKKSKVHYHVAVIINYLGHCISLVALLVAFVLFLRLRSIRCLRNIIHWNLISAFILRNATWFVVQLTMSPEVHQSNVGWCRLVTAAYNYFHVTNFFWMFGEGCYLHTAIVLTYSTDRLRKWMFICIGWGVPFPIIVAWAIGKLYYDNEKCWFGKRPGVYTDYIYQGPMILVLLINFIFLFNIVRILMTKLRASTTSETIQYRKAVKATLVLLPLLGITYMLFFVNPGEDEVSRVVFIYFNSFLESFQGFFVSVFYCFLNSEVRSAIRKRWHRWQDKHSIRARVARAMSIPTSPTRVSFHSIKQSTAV
Assay: Competitive displacement of labeled astressin, hCRFR1α in E. coli membranes
Settings: read-out: Inhibitory binding constant (Ki)
Protocol: The incubation was performed at room temp for 90-120 min, at which time the plates were aspirated and each well was washed with 2×100 μl assay buffer, dried and counted in a γ-counter. Each assay included at least triplicate wells for each concentration, and the assays were repeated at least twice (except where indicated). […] The saturation and competitive binding experiments are analyzed by non-linear regression with the GraphPad Prism program (www.graphpad.com) assuming binding to a single site. Specifically, for saturation binding experiments, binding is determined as a function of increasing concentrations of radioligand. The equation used is y = {(Bmax)^.[radioligand]}/{Kd+[radioligand]}, where y = the specific binding (i.e., total binding-non-specific binding). Competitive binding experiments use a constant concentration of radioligand together with increasing concentrations of competitor. […] Because [radioligand] is <Kd, the Ki = EC50. For multiple determinations, Log (EC50) values were averaged to calculate the values in Table 1. […] In Table 1, the inhibition constant (Ki) values are shown together with the standard error and ranges, calculated assuming log normal distribution.

**Q.** For CC[C@H](C)[C@H](NC(=O)[C@H](CO)NC(=O)[C@H](CC(C)C)NC(=O)[C@@H]1CCCN1C(=O)[C@@H]1CCCN1C(=O)[C@H](CC(=O)O)NC(=O)[C@@H](N)CC(=O)O)C(=O)N[C@@H](CC(=O)O)C(=O)N[C@@H](CC(C)C)C(=O)N[C@H](C(=O)N[C@@H](Cc1ccccc1)C(=O)N[C@@H](Cc1c[nH]cn1)C(=O)N[C@@H](CC(C)C)C(=O)N[C@@H](CC(C)C)C(=O)N[C@@H](CCCNC(=N)N)C(=O)N[C@H](C(=O)N[C@@H](CC(C)C)C(=O)N[C@@H](CC(C)C)C(=O)N[C@@H](CCC(=O)O)C(=O)N[C@@H](CC(C)C)C(=O)N[C@@H](C)C(=O)N[C@@H](CCCNC(=N)N)C(=O)N[C@H](C(=O)N[C@@H](CCC(N)=O)C(=O)N[C@@H](CO)C(=O)N[C@@H](CCC(N)=O)C(=O)N[C@@H](CCCNC(=N)N)C(=O)N[C@@H](CCC(=O)O)C(=O)N[C@@H](CCCNC(=N)N)C(=O)N[C@@H](C)C(=O)N[C@@H](CCC(=O)O)C(=O)N[C@@H](CCC(N)=O)C(=O)N[C@@H](CC(N)=O)C(=O)N[C@@H](CCCNC(=N)N)C(=O)N[C@H](C(=O)N[C@H](C(=O)N[C@@H](Cc1ccccc1)C(=O)N[C@@H](CC(=O)O)C(=O)N[C@@H](CO)C(=O)N[C@H](C(N)=O)C(C)C)[C@@H](C)CC)[C@@H](C)CC)[C@@H](C)O)[C@@H](C)O)[C@@H](C)O [rUcn1], which Ki is on record?
**A.** Its Ki is 98 nM.
